These results are taken from patent US20190275167A1, “GLASS FORMULATIONS AND USES THEREOF” (priority 2018, published 2019).

The conditions of data set [1]: physiologically relevant conditions.
Data set [2] in a line: Drug release from heat-molded pellets/articles in release buffer (PBS, 1% FBS in PBS or 100% FBS) at 37° C., HPLC quantification. Type of data set: physicochemical. The conditions noted are these: over the course of 12 weeks or more; FIGS. 1E, 12E, 15C, 17D.

As to “Dexamethasone-Pentaethylene Glycol-Dexamethasone [Compound 8]”, in data set [1], the “Physical form (shape) changes of articles” value is listed as “do not”. Moreover, in data set [2], the “Dexamethasone release profile from articles” value was “generally linear”.
